# Reference: PubChem BioAssay AID893 (National Center for Advancing Translational Sciences (NCATS), 2007)
# This is a selection; strong and weak results do not stand in their true shares. Some tests of the compounds listed are not included; inactive here does not mean inactive elsewhere. Inconclusive results are not listed. The source made the active and inactive calls. Calls come from the whole dose curve; as a rule, active = well fitted inhibition curve with a large enough effect; inconclusive = small, poorly fitted or top-dose-only effect; inactive = no such curve, though single readings can be large or run the other way.
# Molecular target: 3-hydroxyacyl-CoA dehydrogenase type-2 (Homo sapiens) (UniProt Q99714)
# Experiment: qHTS Assay for Inhibitors of HSD17B4, hydroxysteroid (17-beta) dehydrogenase 4;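 note: the protocol describes HADH2 (HSD17B10) and not the HSD17B4 of the title; nearly all actives have a fitted effect of over 70% in size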
# Conditions: recombinant HSD17B10, NADH fluorescence kinetic; at 11.4 µM (top of the series) unless noted
# % is set by controls: 0 for no effect and ±100 for the full control effect.
row,Structure (SMILES),"activity change, negative = inhibition"
1,CN(C)c1cccc(C(=O)NCC2(N(C)C)CCCCC2)c1,inactive: -7.27% [at 57.1 µM]
2,C=C(C)C#C[C@@](O)(C(=O)OC1CCN(C)CC1)c1ccccc1,inactive: 7.02%
3,CN1CCC[C@H](OC(=O)[C@](O)(c2ccccc2)C2CCCC2)C1,inactive: 12.4%
4,CN1CC[C@H](OC(=O)[C@](O)(c2ccccc2)C2CCCC2)C1,inactive: 4.96%
5,O=C(OC1CN2CCC1CC2)C(CO)(c1ccccc1)c1ccccc1 (stereo not given),inactive: 5.61% [at 57.1 µM]
